Key:
[1] = biological target: T1, CD25 (cell surface, on Karpas299 and SU-DHL-1 cells) (human, UniProt P01589 22-272); assay: flow cytometry on Karpas299 cells (CD25+), average of three experiments
T1 construct: whole, on cells; also called surface CD25
T1 sequence (looked up): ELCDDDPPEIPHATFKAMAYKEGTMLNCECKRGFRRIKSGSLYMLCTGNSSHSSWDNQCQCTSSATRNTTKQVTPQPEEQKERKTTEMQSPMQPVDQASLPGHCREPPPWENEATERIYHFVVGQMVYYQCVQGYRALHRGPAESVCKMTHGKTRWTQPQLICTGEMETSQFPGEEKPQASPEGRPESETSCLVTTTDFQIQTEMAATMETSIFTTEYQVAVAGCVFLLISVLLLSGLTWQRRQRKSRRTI
Description: (§1) Karpas299 and SU-DHL-1 anaplastic large cell lymphoma (ALCL)-derived cell lines have been previously reported to express CD25 (2,3). To confirm their expression profile, CD25 surface expression was analyzed by flow cytometry.
(§2) Surface CD25 expression on Karpas and SU-DHL-1 was determined by flow cytometry. Graphs represent the average of three (Karpas299) or four independent experiments (SU-DHL-1). EC₅₀ values are reported in ng/ml.

[2] = biological target: T1, CD25 (cell surface, on Karpas299 and …); assay: flow cytometry on SU-DHL-1 cells (CD25+), average of four experiments
Description: as §1, §2

B1: Simulect (antibody, V domains shown)
VH: QLQQSGTVLARPGASVKMSCKASGYSFTRYWMHWIKQRPGQGLEWIGAIYPGNSDTSYNQKFEGKAKLTAVTSASTAYMELSSLTHEDSAVYYCSRDYGYYFDFWGQGTTLTVS
VL: QIVSTQSPAIMSASPGEKVTMTCSASSSRSYMQWYQQKPGTSPKRWIYDTSKLASGVPARFSGSGSGTSYSLTISSMEAEDAATYYCHQRSSYTFGGGTKLEIK
notes: also called Antibody A; anti-CD25 antibody
EC50 [1]: 0.0451 µg/mL | EC50 [2]: 0.0667 µg/mL
